Measured affinities in a library of Ab-14 light chain variants

Values reported by Li et al. 2023, doi:10.1038/s41467-023-39022-2 (FLAb copy).

Binding partner: SARS-CoV-2 spike HR2 peptide, sequence PDVDLGDISGINAS.

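The parent was found by panning a naive human phage display library on the peptide. Designed CDR sequences, proposed from the first random library and measured here. Their group label is 14L_Ctrl (Ctrl: baseline library sampled from a position-specific scoring matrix, with some repeated check sequences). In AlphaSeq, yeast of one mating type display the scFv and yeast of the other type display the target. After mating in shaken culture at 30 °C for 16 h, diploids were selected and their barcode pairs sequenced. Scores were corrected for input abundance and mapped to Kd with protein pairs of known affinity run in the same pool. Mating was done six times.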

Ab-14 is the parent antibody, in scFv form: VH, then a (GGGGS)3 linker, then VL. The heavy chain is unchanged in all variants.
VH: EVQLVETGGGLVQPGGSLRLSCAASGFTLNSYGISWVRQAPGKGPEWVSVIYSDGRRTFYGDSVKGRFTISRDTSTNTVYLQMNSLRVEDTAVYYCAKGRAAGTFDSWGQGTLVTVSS
VL: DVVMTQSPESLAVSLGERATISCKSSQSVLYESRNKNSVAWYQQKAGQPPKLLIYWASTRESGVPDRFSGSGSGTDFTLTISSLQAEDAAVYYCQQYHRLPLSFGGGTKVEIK

Substitutions are numbered in sequence along the VL above, starting at 1 (not Kabat).
Numbers give log10(Kd / nM), so 0 is 1 nM and 3 is 1 µM. Smaller is tighter.
An entry "ND" has no value in the source: the pair was not observed among the diploids in that replicate. This suggests poor binding but is not conclusive.
The authors averaged sequences with at least three values out of six and counted those with two or fewer as poor binders.
A sequence measured in both rounds can read differently, since the two assays cover different ranges.
Background: pairings of all light chain designs with three empty control strains gave a value in 4% of cases (median 2.64, 5th percentile 1.59). Values in that range, when seen in few replicates, are hard to tell from nonspecific mating. The control count says in how many pairings with the empty strains this scFv gave a signal, with their mean in brackets.

changes	log10 Kd (nM) by replicate	control signals
V29D+Y31E+E32S+S33V+W56N+T59K+S62L	0.54 / 0.49 / 0.28 / 0.12 / 0.30 / 0.41	1 of 18 (2.58)
Y31A+R34N+V39I+W56S+Q96G	1.15 / 1.00 / 0.97 / 1.24 / 1.10 / 1.55	1 of 18 (2.52)
K24H+S25F+N35P+V39I	1.97 / 1.85 / 2.14 / 1.59 / 1.71 / 1.46	1 of 18 (3.19)
S25H+L30G+W56T	1.58 / 1.21 / ND / ND / 1.58 / 0.96	1 of 18 (1.87)
S25T+W56Q+A57R	1.86 / 1.48 / ND / ND / 2.46 / ND	1 of 18 (2.57)
R34T+V39M+T59M	ND / ND / ND / ND / ND / ND	2 of 18 (1.44)
N35L+W56S+A57C+S62H	ND / ND / ND / ND / ND / ND	1 of 18 (1.47)
S25L+Q27S+S28G+L30P+W56Q	0.24 / -0.07 / -0.41 / -0.14 / 0.02 / -0.13	0 of 18
K24I+L30A+W56G+H98N	1.31 / 1.24 / 1.18 / 1.06 / 0.88 / 1.42	2 of 18 (3.03)
W56N+S58N	0.79 / 0.45 / 0.62 / 0.68 / 0.61 / 0.88	2 of 18 (3.36)
S28D	1.10 / ND / ND / ND / 1.37 / ND	0 of 18
Y31D+R34D+W56A+S62L+Y97V	ND / ND / ND / ND / 2.12 / ND	3 of 18 (2.47)
L30M+R99D+L102Y	ND / ND / ND / ND / ND / ND	0 of 18
S25L+R34S	0.95 / 1.32 / 0.70 / 0.60 / 1.03 / 0.76	2 of 18 (2.23)
S26R+Y31S	1.80 / 2.25 / 2.04 / ND / 3.42 / ND	0 of 18
Y31E+W56N	0.73 / 0.56 / 0.23 / 0.27 / 0.46 / 0.33	0 of 18
S25Y+Q27Y+R34L+E61V	2.27 / 1.82 / 2.42 / 1.57 / ND / 1.93	0 of 18
S25F+L30G+W56G	0.45 / 0.28 / -0.08 / 0.04 / -0.04 / 0.30	0 of 18
S25D+S26R	ND / 2.01 / 1.54 / 1.30 / 2.08 / 1.89	0 of 18
K24R+S28G+Y31K	0.62 / 0.85 / 0.72 / 2.56 / 1.22 / 0.52	1 of 18 (2.07)
S26E+N37H+W56A+S62V	0.83 / 0.65 / 0.58 / 1.11 / 1.05 / 0.47	1 of 18 (2.24)
S25Y+S28P+R34T+S62N	1.34 / 1.14 / 0.93 / 1.65 / 1.61 / 1.35	0 of 18
Q27W	ND / ND / ND / ND / ND / ND	0 of 18
Q95Y+R99T	ND / ND / ND / ND / ND / ND	2 of 18 (2.49)
V29W+P101H	ND / ND / ND / ND / ND / ND	0 of 18
Q27A+V29F+W56G	0.26 / 0.15 / 0.06 / -0.01 / 0.15 / 0.29	3 of 18 (2.99)
V29E+L30F	ND / 1.71 / ND / 2.28 / 2.18 / 3.78	0 of 18
Q27E+Y31Q	ND / 1.65 / ND / ND / ND / ND	0 of 18
N35T	1.51 / 1.50 / 0.93 / 0.87 / 2.13 / 2.02	2 of 18 (2.57)
K36V+T59V	ND / 2.06 / 2.55 / 2.03 / 2.33 / 3.38	0 of 18